One compound from ChEMBL document CHEMBL3286176, “Discovery and structure-activity relationship of novel 2,3-dihydrobenzofuran-7-carboxamide and 2,3-dihydrobenzofuran-3(2H)-one-7-carboxamide derivatives as poly(ADP-ribose)polymerase-1 inhibitors” (J Med Chem, 2014) can be followed below.

By UniProt entry, the sequences of proteins in these tests, tags left out.
UniProt P09874, whole entry: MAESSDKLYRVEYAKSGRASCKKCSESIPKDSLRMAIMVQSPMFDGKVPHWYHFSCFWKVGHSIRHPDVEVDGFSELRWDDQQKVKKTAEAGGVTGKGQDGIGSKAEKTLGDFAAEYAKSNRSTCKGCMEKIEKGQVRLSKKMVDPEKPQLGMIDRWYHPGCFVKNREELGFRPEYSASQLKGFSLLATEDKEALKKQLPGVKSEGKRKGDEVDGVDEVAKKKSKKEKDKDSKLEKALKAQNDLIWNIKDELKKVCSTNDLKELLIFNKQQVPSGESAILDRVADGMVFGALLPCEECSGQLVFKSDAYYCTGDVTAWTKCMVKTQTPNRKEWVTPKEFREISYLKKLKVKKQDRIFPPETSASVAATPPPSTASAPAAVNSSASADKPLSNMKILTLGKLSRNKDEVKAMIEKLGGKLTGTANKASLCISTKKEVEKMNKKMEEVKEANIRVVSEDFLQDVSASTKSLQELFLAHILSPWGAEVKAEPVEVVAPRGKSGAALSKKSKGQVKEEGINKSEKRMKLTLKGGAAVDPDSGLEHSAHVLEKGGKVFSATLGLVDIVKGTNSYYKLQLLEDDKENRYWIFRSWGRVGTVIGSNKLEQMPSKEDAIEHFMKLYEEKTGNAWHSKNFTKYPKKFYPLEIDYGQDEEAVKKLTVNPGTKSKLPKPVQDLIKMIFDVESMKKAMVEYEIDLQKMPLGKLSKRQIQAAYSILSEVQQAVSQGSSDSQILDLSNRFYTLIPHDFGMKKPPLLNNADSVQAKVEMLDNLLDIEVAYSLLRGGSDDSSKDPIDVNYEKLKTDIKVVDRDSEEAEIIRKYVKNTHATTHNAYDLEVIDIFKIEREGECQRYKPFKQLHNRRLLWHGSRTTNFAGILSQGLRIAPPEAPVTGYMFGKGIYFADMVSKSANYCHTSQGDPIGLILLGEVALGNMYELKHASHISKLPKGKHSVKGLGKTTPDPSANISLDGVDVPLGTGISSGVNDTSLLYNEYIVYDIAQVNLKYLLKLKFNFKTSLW

In this assay the target is Poly [ADP-ribose] polymerase 1 (Homo sapiens, UniProt P09874). Put plainly: Inhibition of PARP-1 (unknown origin) using biotinylated NAD+ as substrate after 60 mins by spectrophotometry.

As to `NC(=O)c1cccc2c1O/C(=C\c1ccccc1)C2=O`, the IC50 was determined as 12 µM.
